Antibody variant affinities, Ab-14 light chain, assay B

Data: MIT Lincoln Laboratory AlphaSeq set, Li et al. 2023, doi:10.1038/s41467-023-39022-2, as distributed in FLAb.

Antigen: PDVDLGDISGINAS, a 14-residue peptide of the SARS-CoV-2 spike HR2 region.

Parent scFv Ab-14: VH joined to VL by three GGGGS repeats. Changes lie in the light chain CDRs alone.
VH: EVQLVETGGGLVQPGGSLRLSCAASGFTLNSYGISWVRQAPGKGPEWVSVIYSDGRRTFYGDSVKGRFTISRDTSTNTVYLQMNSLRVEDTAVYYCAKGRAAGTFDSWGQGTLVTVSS
VL: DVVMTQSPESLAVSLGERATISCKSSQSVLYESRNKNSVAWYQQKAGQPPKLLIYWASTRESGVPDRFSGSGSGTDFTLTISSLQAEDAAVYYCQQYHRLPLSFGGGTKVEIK

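Phage display of a naive human antibody library on the peptide gave the parent. This is the validation round: designs drawn from the data on random variants, tested in the same kind of assay. Their group label is 14L_En_HC (En: ensemble of fine-tuned language models; HC: hill climbing; a sequence that several methods proposed may carry one label only). AlphaSeq pools MATa yeast showing the antibodies with MATalpha yeast showing the peptide. The frequency of each diploid, read from paired DNA barcodes, reflects how well the two displayed proteins bind. Scores were corrected for input abundance and mapped to Kd with protein pairs of known affinity run in the same pool. Each pool was mated in six replicate cultures.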

Variants are written as CDR1, CDR2 and CDR3 of the light chain (limits as in the source). Parent: KSSQSVLYESRNKNSVA, WASTRES, QQYHRLPLS. Numbers give log10(Kd / nM), so 0 is 1 nM and 3 is 1 µM. Smaller is tighter. A mean of the replicates is given; it leaves out those without a signal. An entry "nd" has no value in the source: the pair was not observed among the diploids in that replicate. This suggests poor binding but is not conclusive. The parent sequence was in this pool as ten entries: three were never detected, three once, and four in most replicates, with averages from 0.34 to 2.37.

| CDR-L1 | CDR-L2 | CDR-L3 | replicates, log10 nM | mean, log10 nM | control signals |
|---|---|---|---|---|---|
| TLSSSMDMTSRNVNSVA | DLTTRGN | QQYHRLPLS | 0.08 / 0.28 / 0.32 / -0.06 / -0.05 / 0.38 | 0.16 | 0/18 |
| KLSMSMRFLTEAKNSIA | ELVTRMS | QQYHRLPLS | nd / 1.02 / nd / nd / nd / nd | 1.02 | 0/18 |
| KLSEIAHFESRKKNSVA | ENSTREE | QQYDHLPLS | 1.20 / 1.36 / 1.19 / 1.13 / 1.17 / 1.17 | 1.20 | 0/18 |
| ILSQMMLTAGNKHSSVA | QANNRND | QQYHRLPLS | 1.48 / 1.59 / 1.75 / 1.88 / 1.46 / 1.56 | 1.62 | 0/18 |
| HISYSMEHLSRNKNSVA | NQQTRES | QQYHRLPLS | 0.12 / 0.29 / 0.51 / 0.20 / 0.76 / 0.51 | 0.40 | 1/18 (2.15) |
| KLYQSMGYLSHNKASIA | DMSRREN | QQYHRLPLS | 0.55 / 0.58 / 0.31 / 0.28 / 0.24 / 0.76 | 0.45 | 1/18 (2.84) |
| KLRQSTHIESFNKNNVA | EMSTRES | QSYDRLPLS | 1.04 / 0.96 / 1.09 / 0.88 / 0.60 / 1.16 | 0.95 | 0/18 |
| KIMQSLNYESFQKNSVA | GQETRER | QSYHRLPLS | 0.75 / 0.85 / 0.82 / 0.71 / 1.11 / 0.92 | 0.86 | 1/18 (2.37) |
| KLYMSTMLESHNKNSIA | DLSTRGN | QQYHRLPLS | 0.37 / 0.28 / 0.00 / 0.06 / 0.19 / -0.04 | 0.14 | 0/18 |
| KLGQATAMTSRMKNNVA | DLNERER | QQYHRLPLS | 0.04 / 0.23 / -0.14 / -0.13 / -0.22 / -0.05 | -0.04 | 0/18 |
| KLRQVTGYESYIKNSVA | QTSTRAS | QDYHRLPLS | 0.88 / 0.69 / 0.66 / 0.83 / 0.67 / 1.14 | 0.81 | 0/18 |
| TVSQVTEMLSRNKNSVA | DMNTRES | QQYDRLPLS | 0.22 / -0.09 / 0.05 / -0.32 / -0.12 / 0.13 | -0.02 | 1/18 (3.08) |
| KLYQSMGYLSRNKNSIA | DMSRREN | QQYHRLPLS | 0.54 / 0.61 / 0.46 / 0.26 / 0.51 / 0.62 | 0.50 | 2/18 (3.26) |
| KIGFVTNGISRNKNSVA | EQSTRED | QQYNRLPLS | 0.81 / 0.45 / 0.56 / 0.30 / 0.83 / 0.61 | 0.59 | 0/18 |
| KLSEIAHFESRKKNSVA | ENSTRES | QQYDHLPLS | 1.10 / 0.86 / 1.21 / 1.38 / 1.10 / 2.29 | 1.32 | 1/18 (2.65) |
| KLYVSTMLESHEKNSIA | DLSTRGN | QQYHRLPLS | 0.45 / 0.25 / 0.23 / 0.10 / 0.26 / 0.83 | 0.35 | 1/18 (1.36) |
| KVSQLVNFEGKNKNSVA | QMSTRES | QQYDRLPLS | 0.52 / 0.10 / 0.29 / 0.36 / 0.11 / 0.27 | 0.28 | 1/18 (3.42) |
| KISMLQRYESQSKNSIA | EMSRREN | QQYHRLPLS | -0.14 / -0.06 / -0.51 / -0.27 / -0.31 / -0.10 | -0.23 | 0/18 |
| KLRQVTGYEMYNKNSVA | QTSTRVQ | QDYHRLPLS | 0.63 / 0.58 / 0.53 / 0.46 / 0.84 / 0.52 | 0.59 | 0/18 |
| KLRQSSHIESFNKNNVA | EMTTRES | QSYDRLPLS | 1.65 / 1.33 / 1.69 / 1.30 / 1.40 / 1.64 | 1.50 | 0/18 |
| KISQMANFESTHINAVA | QMSTREE | QQYFRLPLS | 0.57 / 0.72 / 0.39 / 0.49 / 0.45 / 0.45 | 0.51 | 1/18 (2.63) |
| KLYQSMGYLSHEKNSIA | DMSRREN | QQYHRLPLS | 0.17 / -0.13 / 0.07 / 0.11 / -0.16 / 0.13 | 0.03 | 0/18 |
| HISMSVGMTSFHKNSVA | ENSTREN | QQYDRLPLS | 2.86 / 2.56 / 1.81 / 2.30 / 2.91 / 2.71 | 2.52 | 3/18 (3.16) |
| HISQMVMYGSCNKNNVA | QVELREE | QQYHRLPLS | 1.48 / 1.14 / 1.18 / 0.90 / 1.93 / nd | 1.33 | 0/18 |
| TISTLMRYESTLKNAIA | NAQTRES | QQYHRLPIS | 1.64 / 0.21 / 0.67 / 0.04 / 0.34 / 0.71 | 0.60 | 1/18 (2.52) |
| HLLQTVMYGQTRKNSVA | HAVTREN | QQYHRLPLM | nd / 2.16 / 1.72 / 1.50 / 1.16 / 1.08 | 1.52 | 0/18 |
| HLSQSSDLESVHKNSIA | DLMTRES | QQYHRLPLS | -0.02 / -0.08 / -0.06 / -0.27 / -0.25 / -0.13 | -0.13 | 0/18 |
| MITAMLRGVGRDKNSVA | NAQTREQ | QHYNRLPLS | nd / nd / nd / nd / nd / 3.37 | 3.37 | 1/18 (3.35) |
| MIAETVGYQSRNKNSVA | DNSTRED | QCYDRLPLS | nd / nd / 2.33 / nd / nd / nd | 2.33 | 3/18 (3.29) |
| SFSQTVMYSSTMRNNVA | QTSTRES | QQYDRLPLS | 0.35 / 0.47 / 0.13 / -0.06 / 0.13 / 0.15 | 0.19 | 0/18 |
| KLGQMTAIESRNLNSVA | QMDTRES | QQYDRLPLS | 0.80 / 1.05 / 0.91 / 0.92 / 0.81 / 1.34 | 0.97 | 1/18 (2.80) |
| KLYFNVGTMAHNTQSIA | DMERRED | QQYHRLPLS | 0.14 / -0.06 / -0.04 / -0.22 / -0.14 / 0.00 | -0.05 | 1/18 (2.25) |
| KISYMGELFSTNHSSIA | QASTREQ | QQYHRLPLS | 1.06 / 1.04 / 1.29 / 1.24 / 1.26 / 1.83 | 1.29 | 0/18 |
| TLTQVQGMESHNKNSVA | DLSVRGS | QQYHRLPLS | 0.40 / 0.26 / 0.42 / 0.10 / 0.28 / 0.33 | 0.30 | 1/18 (2.56) |
| KLRMSTAYLSENKNSVA | ELSTRGS | QQYFRLPLS | 0.48 / 0.70 / 0.20 / 0.51 / 0.50 / 0.81 | 0.53 | 0/18 |
| KISQNMGETQRQKNSVA | EVSTVPS | QQYWRLPLS | 0.74 / 0.89 / 0.42 / 0.35 / 0.23 / 0.71 | 0.56 | 0/18 |
| TIGQVFNGESRNRNSVA | QASTRES | QSYDRLPLS | 0.98 / 1.46 / 1.44 / 0.77 / 1.00 / 0.92 | 1.10 | 3/18 (2.76) |
| MISQLFMYGSRNYNSIA | QASTRES | QQYDRLPLI | 1.43 / 1.43 / 2.84 / 2.74 / 1.82 / 1.88 | 2.02 | 2/18 (2.63) |
| KISQMVNYESTHINAVA | QMSTREE | QQYFRLPLS | 1.04 / 0.78 / 0.70 / 0.39 / 0.41 / 0.91 | 0.70 | 0/18 |
| KLIQSVAMLSRNKDSIA | DNSTRES | QQYHRLPLS | 0.82 / 0.90 / 0.93 / 0.74 / 0.77 / 0.83 | 0.83 | 1/18 (2.53) |

2 of these entries, quoted again:

| CDR-L1 | CDR-L2 | CDR-L3 | replicates, log10 nM | mean, log10 nM | control signals |
|---|---|---|---|---|---|
| KLRQSSHIESFNKNNVA | EMTTRES | QSYDRLPLS | 1.65 / 1.33 / 1.69 / 1.30 / 1.40 / 1.64 | 1.50 | 0/18 |
| KIGFVTNGISRNKNSVA | EQSTRED | QQYNRLPLS | 0.81 / 0.45 / 0.56 / 0.30 / 0.83 / 0.61 | 0.59 | 0/18 |

The authors averaged sequences with at least three values out of six and counted those with two or fewer as poor binders. Values of this round are not directly comparable with the first-round values of the same sequences. As a blank, each scFv also met three strains without target: over all light chain designs, 4% of these pairings were detected, typically at 2.64 and seldom below 1.59. Also given: how often the same scFv was detected with the empty control strains, with their mean in brackets.